## Antibody variant affinities, Ab-14 heavy chain, assay B

Reference: Li et al. 2023, doi:10.1038/s41467-023-39022-2. File: FLAb, binding data.

Target: peptide PDVDLGDISGINAS, taken from heptad repeat 2 (HR2) of SARS-CoV-2 spike.

Parent: Ab-14, a human scFv built as VH, a (GGGGS)3 linker, VL. Only the CDRs of the heavy chain vary.
VH: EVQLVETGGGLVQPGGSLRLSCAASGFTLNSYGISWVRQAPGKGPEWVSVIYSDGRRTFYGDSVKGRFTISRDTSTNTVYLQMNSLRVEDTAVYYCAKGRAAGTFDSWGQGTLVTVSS
VL: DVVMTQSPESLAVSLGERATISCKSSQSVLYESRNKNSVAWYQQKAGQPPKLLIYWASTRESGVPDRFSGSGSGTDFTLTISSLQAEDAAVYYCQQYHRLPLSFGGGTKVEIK

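Phage display of a naive human antibody library on the peptide gave the parent. This is the validation round: designs drawn from the data on random variants, tested in the same kind of assay. Group labels follow the data file (Ctrl: baseline library sampled from a position-specific scoring matrix, with some repeated check sequences; Rand: our label for a block that the file lists under HC and that is probably the random mutants of the ten best first-round binders; En: ensemble of fine-tuned language models; GP: Gaussian process model; GPLM: also part of the Gaussian process libraries; HC: hill climbing; Gen: genetic algorithm; Gibbs: Gibbs sampling; a sequence that several methods proposed may carry one label only). The scFvs were displayed on barcoded MATa yeast, the peptide on MATalpha yeast. Mating (16 h, 30 °C) was followed by selection of diploids and sequencing of their barcodes. Read counts were normalised to the haploid input and turned into Kd by a linear fit to BCL2-family pairs of known affinity, for each replicate. There are six technical replicates.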

Each variant is given by its three heavy chain CDRs, as the data file delimits them; those of the parent are GFTLNSYGIS, VIYSDGRRTFYGDSVK, GRAAGTFDS. Numbers give log10(Kd / nM), so 0 is 1 nM and 3 is 1 µM. Smaller is tighter. Averages over replicates are reported, and they cover detected replicates only. An entry "no signal" has no value in the source: the pair was not observed among the diploids in any replicate. This suggests poor binding but is not conclusive. Some sequences occur more than once in the pool; their replicates are pooled. The range of this assay differs from that of the first round, and the authors advise against merging the two. The authors averaged sequences with at least three values out of six and counted those with two or fewer as poor binders. Empty control strains, which show no peptide, gave a signal in 1% of pairings with all heavy chain designs; the median was 2.08 and 95% of these signals were weaker than 0.84. No background was subtracted. For each scFv, signals with the empty controls are counted beside the result.

| CDR-H1 | CDR-H2 | CDR-H3 | group | mean, log10 nM | detected | empty controls |
|---|---|---|---|---|---|---|
| GFDLNEYGIS | VIYADGRRTYYADSVK | GNVAGTFDV | En_Gen | -0.23 | 6 of 6 | 0 of 18 |
| GFDLNEYGIS | VIYADGMRTAYAESVK | GENAGTFDV | En_Gen | -0.49 | 6 of 6 | 0 of 18 |
| GFDLGEYGIS | VIYADGKRTACKTNVK | GTFAGTLLV | En_Gibbs | no signal | 0 of 6 | 0 of 18 |
| GFNLDEYGIS | VIYADGRRTFYADSVK | GEHAGTFDM | En_HC | 0.04 | 6 of 6 | 1 of 18 |
| GFELNSYGIS | VIYADGRRTFYGDSVK | GMAAGTFDS | GP_Gen | 0.23 | 6 of 6 | 1 of 18 |
| GFDLNSYGIS | VIYSDGRRTFYIDSVK | GKEAGTFDS | GP_Gen | -0.06 | 6 of 6 | 0 of 18 |
| GFDLNSYGIS | VIYSDGRRTFYGDSVK | GRVAGTFDM | GP_Gen | 0.53 | 6 of 6 | 0 of 18 |
| GFTLDEYGIS | VIYADGRRTFYADSVK | GGNAGTFDV | En_HC | 0.06 | 6 of 6 | 0 of 18 |
| HFTLNSYGIS | VIYSDGRRTFYGDSVK | GRAAGTFDS | Ctrl | 1.90 | 1 of 6 | 1 of 18 |
| GFTLRSYGIS | VIYSDGRRTFYGDSVK | GRAAGTFDS | Ctrl | 0.03 | 6 of 6 | 0 of 18 |
| EFDLNNYGIS | VIYADGLRTAYETSVK | GDVAGTFVS | En_Gibbs | 0.97 | 6 of 6 | 1 of 18 |
| GFDLEKYGIS | VIYADGRRSVYADDVK | GMLGATFGV | En_Gibbs | no signal | 0 of 6 | 1 of 18 |
| GFTLNDYGIS | VIYSDGRRTQYIDWVK | GRAKGTFDS | Rand | no signal | 0 of 6 | 0 of 18 |
| GFTLNDYGIS | VIYSDGRRTFYADSVK | GRAAGTFFS | GPLM_HC | -0.25 | 1 of 6 | 0 of 18 |
| GFTLNSYGIS | VIYSDGMRTFYSDSVK | GRAAGTFDS | Ctrl+GPLM_HC | 0.83 | 12 of 12 | 0 of 36 |
| GFSLNQYGIS | VIYSDGRRTFYIDSVK | GRAAGTFDS | GPLM_Gen | 0.57 | 6 of 6 | 0 of 18 |
| GFNLNSYGIS | VIYSDGRRTFYGDNVK | GNAAGTFDS | GPLM_Gibbs | 0.68 | 6 of 6 | 1 of 18 |
| AFTLNIYGIS | VISSDGRRTQYIDSVK | GRAANTFDS | Rand | no signal | 0 of 6 | 0 of 18 |
| GFSLNSYGIS | VIYSDGRRTFYADQVK | GRTAGTFDS | GPLM_Gen | 0.45 | 6 of 6 | 1 of 18 |
| GFHLNSYGIS | VIYSDGRRQFYGDSVK | GRAAGWFNS | Rand | no signal | 0 of 6 | 0 of 18 |
| GFDLNEYGIS | VIYADGRRTFYADSVK | GKIAGTFNL | En_HC | -0.51 | 6 of 6 | 1 of 18 |
| GFDLNSYGIS | VIYSDGRRTFYVDSVK | GRQAGTFDS | GPLM_Gibbs | -0.60 | 6 of 6 | 0 of 18 |
| GFDLDEMGIS | VIYADGQRAAYQGSVK | GTNNGNFNE | En_Gibbs | 1.55 | 1 of 6 | 1 of 18 |
| GFTLNQYGIS | VIYSDGRRTFYSDSVK | GRAAWFFDS | Rand | 2.33 | 3 of 6 | 0 of 18 |
| GFSLNEYGIS | VIYSDGRRTFYGDSVK | GRAAGTFDC | GPLM_Gen | no signal | 0 of 6 | 0 of 18 |
| GFELNSYGIS | VIYSDGRRTFYADSVK | GTTAGTFDS | GPLM_Gibbs | -0.01 | 6 of 6 | 0 of 18 |
| GFDLDEYGIS | VIYADGMRTAYADSVK | GETAGTFDV | En_Gen | -0.30 | 6 of 6 | 1 of 18 |
| GFSLNSYGIS | VIYSDGRRTFYKDSVK | GNEAGTFDS | GP_Gibbs | -0.23 | 6 of 6 | 0 of 18 |
| GFGLDEYGIS | VIYADGNRVFYADTVK | GLLGILKVV | En_Gibbs | no signal | 0 of 6 | 0 of 18 |
| GFNLNSYGIS | VIYSDGRRTFYGDNVK | GWTAGTFDS | GP_Gibbs | 0.46 | 6 of 6 | 0 of 18 |

Continued, with the values leading:

| mean, log10 nM | detected | empty controls | CDR-H1 | CDR-H2 | CDR-H3 | group |
|---|---|---|---|---|---|---|
| 0.87 | 6 of 6 | 0 of 18 | GFELNSYGIS | VIYSDGRRTFYDDSVK | GDAAGTFDS | GP_Gibbs |
| no signal | 0 of 6 | 0 of 18 | GFNLNSYGIS | VIIADGRRTFYGDSVK | GRAAGTGSS | Ctrl |
| -0.29 | 6 of 6 | 1 of 18 | GFDLNEYGIS | VIYADGVRTSYADSVK | GEVAGTFDI | En_Gen |
| -0.01 | 6 of 6 | 0 of 18 | GFDLEDYGIS | VIYADGRRTAYADSVK | GNVAGTFDT | En_Gen |
| 0.57 | 6 of 6 | 0 of 18 | KFDLNSYGIS | VIYSDGRRTFYADSVK | GNAAGTFDS | GP_Gen |
| 0.73 | 6 of 6 | 1 of 18 | GFTLNSYGIS | VIYSDGRRTFYKDSVK | GEAAGTFDS | GPLM_Gen |
| 1.11 | 11 of 12 | 0 of 36 | GFTLNSYGIS | VIYSDGRRTFYIDSVK | GREAGTFDS | Ctrl+GPLM_Gibbs |
| 0.12 | 6 of 6 | 0 of 18 | GFDLNEYGIS | VIYADGMRTFYTDSVK | GETAGTFIN | En_HC |
| 0.63 | 6 of 6 | 0 of 18 | GFDLNSYGIS | VIYSDGRRTFYADMVK | GRQAGTFDS | GP_Gen |
| 1.05 | 6 of 6 | 0 of 18 | GFNLNSYGIS | VIYSDGRRTFYADSVK | GKMAGTFDS | GP_Gibbs |
| no signal | 0 of 6 | 0 of 18 | GQDINEYGIS | VIYADGRRKAYSQQVK | GQNLGDVEV | En_Gibbs |
| 0.39 | 3 of 6 | 0 of 18 | GFTLNSYGIS | VIYSDGRRTFYSDSVK | GRAAGTFDN | Ctrl |
| no signal | 0 of 6 | 0 of 18 | GFDLNSYGIS | VIYSDGRRTFYGDSVK | GRVAGTFDT | GPLM_Gen |
| -0.33 | 6 of 6 | 0 of 18 | GFTLNSYGIS | VIYADGRRTFYGDSVK | GKVAGTFDT | GPLM_Gibbs |
| 0.42 | 6 of 6 | 0 of 18 | GFQLNEYGIS | VIYSDGRRTFYGDSVK | GRLAGTFDS | Ctrl |
| no signal | 0 of 6 | 0 of 18 | GVDIDEYGIS | VIYADGIRTFYIDKVK | GNMGGQFDM | En_Gibbs |
| 0.27 | 6 of 6 | 0 of 18 | GFDLNEYGIS | VIYADGRRTFYADSVK | GEFAGTFDS | En_HC |
| 0.50 | 6 of 6 | 0 of 18 | GFGLMDYGIS | VIYADGMRRSYANSVK | GKHAGTFDF | En_Gibbs |
| no signal | 0 of 6 | 0 of 18 | GETLRSYGIS | VIYSDGRRTFYGDSVK | IRAADTFDS | Ctrl |
| -0.73 | 6 of 6 | 0 of 18 | GFDLNEYGIS | VIYADGKRTFYSDSVK | GENAGTFDV | En_Gen |
| 0.41 | 6 of 6 | 2 of 18 | GFDLESYGIS | VIYSDGRRTFYSDSVK | GNAAGTFDS | Ctrl |
| -0.80 | 6 of 6 | 2 of 18 | GFNLNEYGIS | VIYADGRRTFYADSVK | GENAGTFDI | En_HC |
| 0.41 | 6 of 6 | 0 of 18 | GFSLNSYGIS | VIYSDGRRTFYADAVK | GTAAGTFDS | GPLM_Gen |
| -0.51 | 6 of 6 | 2 of 18 | GFDLNEYGIS | VIYADGMRTFYADDVK | GENAGTFDI | En_Gen |
| -0.42 | 6 of 6 | 0 of 18 | GFDLNEYGIS | VIYADGRRTAYSDSVK | GEVAGTFDV | En_Gen |
| 0.10 | 6 of 6 | 0 of 18 | GFDLNEYGIS | VIYADGRRTFYSDSVK | GTNAGTFDM | En_HC |
| 0.49 | 6 of 6 | 0 of 18 | GFTLNSYGIS | VIYSDGRRTFYGPSVR | GRVAGTFDS | Ctrl |
| -0.71 | 6 of 6 | 0 of 18 | GFDLDEYGIS | VIYADGMRKVYADSVK | GNVAGTFDV | En_Gen |
| -0.37 | 6 of 6 | 0 of 18 | GFDLEEYGIS | VIYADGRRTFYADNVK | GENAGTFDI | En_HC |
| no signal | 0 of 6 | 0 of 18 | GFTLNSYGIS | VIYSDGVREFYGDSVK | GRAAGTFDS | Ctrl |

Excerpt, the first 10 entries:

CDR-H1,CDR-H2,CDR-H3,group,"mean, log10 nM",detected,empty controls
GFDLNEYGIS,VIYADGRRTYYADSVK,GNVAGTFDV,En_Gen,-0.23,6 of 6,0 of 18
GFDLNEYGIS,VIYADGMRTAYAESVK,GENAGTFDV,En_Gen,-0.49,6 of 6,0 of 18
GFDLGEYGIS,VIYADGKRTACKTNVK,GTFAGTLLV,En_Gibbs,no signal,0 of 6,0 of 18
GFNLDEYGIS,VIYADGRRTFYADSVK,GEHAGTFDM,En_HC,0.04,6 of 6,1 of 18
GFELNSYGIS,VIYADGRRTFYGDSVK,GMAAGTFDS,GP_Gen,0.23,6 of 6,1 of 18
GFDLNSYGIS,VIYSDGRRTFYIDSVK,GKEAGTFDS,GP_Gen,-0.06,6 of 6,0 of 18
GFDLNSYGIS,VIYSDGRRTFYGDSVK,GRVAGTFDM,GP_Gen,0.53,6 of 6,0 of 18
GFTLDEYGIS,VIYADGRRTFYADSVK,GGNAGTFDV,En_HC,0.06,6 of 6,0 of 18
HFTLNSYGIS,VIYSDGRRTFYGDSVK,GRAAGTFDS,Ctrl,1.90,1 of 6,1 of 18
GFTLRSYGIS,VIYSDGRRTFYGDSVK,GRAAGTFDS,Ctrl,0.03,6 of 6,0 of 18